Legend:
FC region from IgG [1] = assay: BSI, steady-state (end-point) analysis with Prism, free solution
FC region from IgG [2] = assay: BSI, kinetic analysis (observed rate versus IgG concentration), free solution
Calcineurin [3] = assay: BSI, steady-state or end-point analysis, Ca2+ present
Calcineurin [4] = assay: BSI, kinetic analysis (observed rates versus Calcineurin concentration), Ca2+ present
Calcineurin [5] = assay: BSI control, 10 nM CaM and 100 nM Calcineurin, both in the absence of Ca2+

Row | Kd (Calcineurin [3]) [nM] | Kd (Calcineurin [4]) [nM] | percent of the signal observed at the equivalent concentrations in the presence of Ca2+ (Calcineurin [5]) [%] | Substance | Kd (FC region from IgG [1]) [nM] | Kd (FC region from IgG [2]) [nM]
1 |  |  |  | Protein A (from UniProt P38507 37-477) | 6.27 | 7.91
2 | 11.6 | 15.7 | < 1.5 | Calmodulin (from UniProt P0DP23 2-149) |  | 

Reference: patent publication US20180120302A1
